From US20220088145A1

Legend:
Test in all cases: peptide binding to HLA-DR dimer; EC50 ratio (<20 = high affinity, 20-100 = moderate affinity); method not described
[1] = target: HLA-DR15 dimer (DR1501) (human)
[2] = target: HLA-DR7 dimer (DR0701) (human)
[3] = target: HLA-DR11 dimer (DR1101) (human)
[4] = target: HLA-DR3 dimer (DR0301) (human)

Substance | EC50 Ratio [1] | EC50 Ratio [2] | EC50 Ratio [3] | EC50 Ratio [4]
CBir1 p456-475 (peptide) | 0.32 | 3.7 | – | –
E. rectale Fla1 p445-464 (peptide) | – | – | 0.3 | –
R. Intest. Fla1 p408-427 (peptide) | – | – | 58 | 55
